Earlier results in PMC4181337 (Metallomics : integrated biometal science, 2013).

Details: daily administration 25 to 125 mg in humans; cited from earlier work

In the case of ammonium vanadyl tartrate, the absorption is listed as 1.1%.
